# Measured values taken from patent publication US20230414622A1, “PHARMACEUTICAL METHOTREXATE COMPOSITION” (Leopold MTX GmbH, priority 2020, published 2023).
# Experiment: Thermal unfolding profiles (Tycho NT.6 fluorimeter): temperature stability of the biologic with or without MTX
# Type: physicochemical
# From the text: To prepare the compositions according to the invention, the biologics were combined with methotrexate disodium at concentrations of 25 milligrams per milliliter, 16.6 milligrams per milliliter, 10.0 milligrams per milliliter, 7.14 milligrams per milliliter, and 5.0 milligrams per milliliter, respectively. Phosphate buffered saline (PBS buffer) pH 7.5 was used as the solvent. As reference composition in each case served the biopharmaceutical in equivalent concentration in PBS buffer pH 7.5 without the addition of methotrexate disodium.
# In each case, the above-noted concentrations were the final concentration of the biopharmaceutical or the methotrexate in the pharmaceutical composition.
# After 20 days of incubation, the compositions were measured using a Tycho NT.6 fluorimeter (NanoTemper Technologies, Munich, Germany) according to the manufacturer's instructions to determine the thermal unfolding profiles of the biologics.
# The inflection point of each curve indicates the denaturation temperature of the biopharmaceutical in the composition.
substance,measurement,setting,value
Abatacept: biologic binding lymphocyte activation antigen CD80 or CD86 (trade name: Orencia),temperature stability in composition with MTX,"MTX 10 milligrams per milliliter, PBS pH 7.5, 20 days of incubation",91.5 °C
same,denaturation temperature / temperature stability in reference composition without MTX,"PBS buffer pH 7.5, without MTX, after 20 days of incubation",85.9 °C
